Experimental findings from the supplement of paper PMC12532568 are described below.

Where a name gives a salt, the structure may show the parent alone. Only a part is listed here, and it is no random draw.

The subject of this assay is Danio rerio larvae Tg(actc1b:ZsGreen-LC3), 3 dpf. The assay can be described thus: LC3 puncta relative area vs vehicle, without NH4Cl (log2 fold change); higher = more autophagosomes. As to conditions: 10 µM; treatment time 16 h; NH4Cl: none. The procedure: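 Transgenic Tg(actc1b:ZsGreen-map1lc3) zebrafish larvae (2 dpf) were treated for 16 h with Tocris library compounds at 10 µM (n = 12 larvae per compound). Skeletal-muscle LC3 puncta area relative to body area was measured by high-content confocal imaging before and after 4 h of 100 mM NH4Cl (autophagic flux), normalised to vehicle (DMSO), and reported as log2 fold change.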
As to `N/C(=N/CCc1ccc(I)cc1)SCCCc1cnc[nH]1` [Iodophenpropit dihydrobromide], the “LC3 puncta (log2)” value is 0.402.
